Earlier results on one compound are cited in patent publication US20170298446A1, “BIOMARKERS OF BRUTON TYROSINE KINASE INHIBITOR RESISTANCE” (OHIO STATE INNOVATION FOUNDATION, priority 2014, published 2017).

The chains behind the UniProt entries cited, without tags or fusion partners. Where a name states a change or a piece, a line headed by the entry shows the natural chain unless it says otherwise.
UniProt Q06187: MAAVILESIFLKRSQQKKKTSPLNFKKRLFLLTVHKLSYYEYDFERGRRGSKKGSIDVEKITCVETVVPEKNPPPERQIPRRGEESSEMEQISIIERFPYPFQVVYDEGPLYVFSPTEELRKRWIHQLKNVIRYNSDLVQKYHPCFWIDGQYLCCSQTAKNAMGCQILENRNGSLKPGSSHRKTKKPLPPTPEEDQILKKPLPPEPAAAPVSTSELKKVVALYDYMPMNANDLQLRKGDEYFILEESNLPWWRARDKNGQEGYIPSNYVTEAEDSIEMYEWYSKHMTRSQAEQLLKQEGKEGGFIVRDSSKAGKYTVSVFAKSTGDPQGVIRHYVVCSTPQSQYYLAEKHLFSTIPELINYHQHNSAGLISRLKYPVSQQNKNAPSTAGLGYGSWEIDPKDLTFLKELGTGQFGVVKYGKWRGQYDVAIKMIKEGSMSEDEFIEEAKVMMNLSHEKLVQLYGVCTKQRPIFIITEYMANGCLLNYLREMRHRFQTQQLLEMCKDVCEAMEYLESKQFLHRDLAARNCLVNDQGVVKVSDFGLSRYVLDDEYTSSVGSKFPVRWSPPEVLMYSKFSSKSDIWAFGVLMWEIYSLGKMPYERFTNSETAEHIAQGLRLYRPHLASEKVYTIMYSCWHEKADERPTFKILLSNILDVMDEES

The data set deals with BTK (Homo sapiens, UniProt Q06187). The following applies: biochemical kinase / enzymology assays; read-out: IC50 against BTK.

With `C=CC(=O)Nc1cccc(Nc2nc(Nc3ccc(OCCOC)cc3)ncc2F)c1` [CC-292, N-(3-((5-fluoro-2-((4-(2-methoxyethoxy)phenyl)amino)pyrimidin-4-yl)amino)phenyl)acrylamide], the 50% inhibitory concentration (IC50) is less than 0.5 nM.

A word on the IC50: it is the concentration that inhibits the measured activity by half.
